In patent publication US20260183304A1, “COMBINATION OF A TYROSINE KINASE INHIBITOR AND A PRO-INFLAMMATORY AGENT FOR TREATING CANCER” (MDX Management LLC, priority 2022, published 2026):

Tested on: MC38, KPC and LLC tumor models
Test: Syngeneic murine tumor models, TKi alone or with proinflammatory activators
Format: in vivo, mice
Details: TLR or Sting agonists induced
Description: In vivo tests. […]. […] […].
[…]. Tumor volume changes were recorded.

Cc1nc(Nc2ncc(C(=O)Nc3c(C)cccc3Cl)s2)cc(N2CCN(CCO)CC2)n1 [Dasatinib, N-(2-chloro-6-methylphenyl)-2-[[6-[4-(2-hydroxyethyl)-1-piperazinyl]-2-methyl-4-pyrimidinyl]amino]-5-thiazole carboxamide monohydrate]
neutrophil infiltration into tumors: moderately curbs down
